Assay results published in patent US5750496A, “Method of controlling cryptosporidium infectons using protease inhibitors” (priority 1996, dated 1998).

System: BFTE cells
Test: Cytotoxicity for BFTE cells at the concentrations evaluated
Type: cell-based, bovine
Conditions: at the concentrations evaluated (5-1000 μg/ml)
Experimental: Primary BFTE cell cultures were prepared from bovine fallopian tubes (FT). Fat was trimmed from the serosal surfaces, mucus was gently squeezed from the lumens, and FT were decontaminated by being submerged in 70% ethanol for 30 seconds. The FT were then transferred to sterile culture petri dishes containing HBSS and washed twice. The BFTE cells were harvested either by flushing the FT with HBSS, using a 10 ml syringe equipped with a mouse feeding needle, or by opening the FT lengthwise with scissors and scraping the mucosal surfaces. The BFTE cells were subsequently washed in HBSS by centrifugation at 200×g (force of gravity) for 10 minutes, planted in 75-cm^2 flasks containing RPMI 1640 and cultured in a 5% CO2 incubator at 37° C. for 72 to 120 hours. […]
The anticryptosporidial potential of the protease inhibitor AAT was evaluated in a BFTE cell culture system inoculated with C. parvum oocysts in accordance with the methods detailed in Example I. AAT concentrations of 5, 10, 50 100, and 500 micrograms per milliliter ("μg/ml") in RPMI medium were mixed with C. parvum oocysts and used to inoculate BFTE cell monolayers. […] Results, as set out in Table 1, represent the mean number of parasites counted per treatment group expressed as a percent, plus or minus the standard deviation, of the mean number of parasites counted in the infection control group.

For aprotinin, the “Cytotoxicity for BFTE cells” value was “no evidence of cytotoxicity”.
